## Measured affinities in a library of Ab-14 heavy chain variants

The measurements come from Li et al. 2023 (doi:10.1038/s41467-023-39022-2) through the FLAb antibody collection.

Target peptide (SARS-CoV-2 spike, HR2 region): PDVDLGDISGINAS

Ab-14 is the parent antibody, in scFv form: VH, then a (GGGGS)3 linker, then VL. The light chain is unchanged in all variants.
VH: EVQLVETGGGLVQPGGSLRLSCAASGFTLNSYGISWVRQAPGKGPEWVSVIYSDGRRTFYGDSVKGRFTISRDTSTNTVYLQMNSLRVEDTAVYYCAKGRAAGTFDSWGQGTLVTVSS
VL: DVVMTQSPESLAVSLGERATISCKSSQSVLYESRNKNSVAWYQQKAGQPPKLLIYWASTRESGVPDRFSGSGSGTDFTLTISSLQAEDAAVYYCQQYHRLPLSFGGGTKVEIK

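The starting antibody came from a phage panning campaign against this peptide. The variants were designed computationally from a first round of random CDR variants and then made and measured. Their group label is 14H_En_HC (En: ensemble of fine-tuned language models; HC: hill climbing; a sequence that several methods proposed may carry one label only). In AlphaSeq, yeast of one mating type display the scFv and yeast of the other type display the target. After mating in shaken culture at 30 °C for 16 h, diploids were selected and their barcode pairs sequenced. The ratio of observed to expected reads was calibrated, replicate by replicate, on BCL2-family standards whose Kd was known from biolayer interferometry. The assay was run in six technical replicates.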

Each variant is given by its three heavy chain CDRs, as the data file delimits them; those of the parent are GFTLNSYGIS, VIYSDGRRTFYGDSVK, GRAAGTFDS.
The read-out is the apparent dissociation constant on a log10 scale (nM): the lower, the stronger.
A mean of the replicates is given; it leaves out those without a signal.
"ND" marks a missing value. The strain was present, yet no cells mated with the target were sequenced in that replicate, which points to weak or no binding.
The authors averaged sequences with at least three values out of six and counted those with two or fewer as poor binders.
A sequence measured in both rounds can read differently, since the two assays cover different ranges.
As a blank, each scFv also met three strains without target: over all heavy chain designs, 1% of these pairings were detected, typically at 2.08 and seldom below 0.84. For each scFv, signals with the empty controls are counted beside the result, with their mean in brackets.
The parent sequence was in this pool as ten entries: three were never detected, three once, and four in most replicates, with averages from 0.34 to 2.37.

| CDR-H1 | CDR-H2 | CDR-H3 | log10 Kd, replicates | mean log10 Kd (nM) | empty controls |
|---|---|---|---|---|---|
| GFDLESYGIS | VIYADGSRTAYADSVK | GNVAGTFDQ | -0.60 -0.40 -0.55 -0.40 -0.63 -0.49 | -0.51 | 0 of 18 |
| GFDLNEYGIS | VIYADGRRTAYTDSVK | GGNAGTFIS | ND ND ND ND ND ND | ND | 0 of 18 |
| GFDLNEYGIS | VIYADGRRTFYADSVK | GQDAGTFDV | 0.52 -0.99 -0.90 -0.84 -0.50 0.09 | -0.44 | 0 of 18 |
| GFNLDEYGIS | VIYADGKRTFYSDSVK | GEVAGTFDI | -0.44 -0.44 -0.59 -0.69 -0.70 -0.31 | -0.53 | 0 of 18 |
| GFDLNEYGIS | VIYADGRRTFYVDSVK | GGNAGTFDS | -0.43 -0.57 -0.49 -0.57 -0.64 -0.56 | -0.54 | 0 of 18 |
| GFDLNEYGIS | VIYADGRRTAYTDSVK | GHVAGTFKL | -0.28 -0.25 -0.31 -0.71 -0.66 -0.03 | -0.37 | 1 of 18 (2.78) |
| GFDLNEYGIS | VIYADGLRTAYADSVK | GQNAGTFDL | -0.52 -0.53 -0.75 -0.61 -0.58 -0.58 | -0.59 | 0 of 18 |
| GFDLNEYGIS | VIYADGRRTFYADSVK | GSNAGTFLV | ND -0.30 0.66 ND 1.32 0.70 | 0.59 | 0 of 18 |
| GFDLNEYGIS | VIYADGLRTFYADSVK | GNLAGTFDS | 0.22 -0.60 -0.59 -0.80 -0.17 0.03 | -0.32 | 0 of 18 |
| GFDLNEYGIS | VIYADGRRSFYADSVK | GQLAGTFDM | -0.02 -0.24 -0.47 -0.89 -0.20 -0.39 | -0.37 | 1 of 18 (1.68) |
| GFDLESYGIS | VIYADGSRTAYADSVK | GNVAGTFNI | 0.15 -0.25 0.16 -0.20 -0.03 -0.05 | -0.04 | 0 of 18 |
| GFDLNEYGIS | VIYADGLRTFYTDSVK | GETAGTFDS | -0.47 -0.16 -0.59 -0.44 -0.50 -0.31 | -0.41 | 0 of 18 |
| GFDLNEYGIS | VIYADGKRTFYSDSVK | GEVAGTFDQ | -0.23 -1.07 -0.63 -1.38 -0.52 0.15 | -0.61 | 0 of 18 |
| GFDLNEYGIS | VIYADGRRTFYADSVK | GENAGTFKF | 0.50 -0.38 -0.37 -0.58 -0.04 -0.10 | -0.16 | 0 of 18 |
| GFNLDEYGIS | VIYADGRRTFYQDSVK | GEGAGTFDT | ND 2.27 1.75 1.90 1.76 ND | 1.92 | 1 of 18 (1.84) |
| GFSLDEYGIS | VIYADGMRTFYADSVK | GNVAGTFDV | -0.33 -0.21 -0.29 -0.46 -0.28 -0.35 | -0.32 | 0 of 18 |
| GFNLNEYGIS | VIYADGRRTFYADSVK | GQHAGTFDM | -0.18 -0.20 -0.10 -0.40 -0.67 -0.27 | -0.30 | 0 of 18 |
| GFDLNEYGIS | VIYADGRRTAYADSVK | GEAAGTFDT | -0.34 0.10 -0.44 -0.23 -0.33 0.30 | -0.16 | 0 of 18 |
| GFDLNEYGIS | VIYADGRRTFYADSVK | GEIAGTFFS | 0.72 0.85 0.62 1.16 1.22 1.17 | 0.96 | 0 of 18 |
| GFDLNEYGIS | VIYADGMRTFYADSVK | GNTAGTFDS | -0.56 -0.32 -0.52 -0.47 -0.59 -0.43 | -0.48 | 1 of 18 (2.00) |
| GFTLDEYGIS | VIYADGRRTFYSDSVK | GGNAGTFDV | 0.13 0.02 0.12 -0.20 -0.19 0.19 | 0.01 | 1 of 18 (2.52) |
| GFDLNEYGIS | VIYADGQRTFYADSVK | GQLAGTFDS | -0.41 -0.47 -0.40 -0.18 -0.37 -0.36 | -0.36 | 0 of 18 |
| GFDLNEYGIS | VIYADGMRTQYIDSVK | GEQAGTFDS | -1.03 0.34 0.63 -0.63 0.34 -0.43 | -0.13 | 0 of 18 |
| GFDLNEYGIS | VIYADGMRTQYTDSVK | GNEAGTFDS | ND ND ND ND ND ND | ND | 1 of 18 (2.38) |
| GFDLNEYGIS | VIYADGMRTAYTDSVK | GNEAGTFDE | 0.00 -0.20 0.19 0.04 0.43 0.49 | 0.16 | 0 of 18 |
| GFDLNEYGIS | VIYADGRRTFYTDSVK | GQTAGTFDS | -0.54 -0.58 -0.87 -0.92 0.07 -0.57 | -0.57 | 0 of 18 |
| GFNLNEYGIS | VIYADGMRTFYTDSVK | GENAGTFDE | 0.42 -0.36 0.35 -0.54 -0.37 -0.54 | -0.17 | 0 of 18 |
| GFDLNEYGIS | VIYADGMRTFYADSVK | GKNAGTFDQ | 0.50 ND 1.20 0.74 0.65 ND | 0.77 | 0 of 18 |
| GFDLNEYGIS | VIYADGRRTAYSDSVK | GTNGGTFDM | 0.03 -0.07 -0.01 -0.18 -0.20 -0.04 | -0.08 | 0 of 18 |
| GFDLNEYGIS | VIYADGRRTFYSDSVK | GEAAGTFDA | -0.17 -0.39 -0.75 -0.53 -0.77 -0.46 | -0.51 | 0 of 18 |
| GFDINEYGIS | VIYADGRRTSYADSVK | GNQGGTFDL | 0.21 0.07 -0.04 0.12 0.31 0.10 | 0.13 | 0 of 18 |
| GFELDEYGIS | VIYADGRRTFYADSVK | GENAGTFMM | ND ND ND ND ND ND | ND | 0 of 18 |
| GFDLNEYGIS | VIYADGRRTFYSDSVK | GQLAGTFDK | -0.21 -0.41 -0.49 -0.47 -0.42 -0.42 | -0.40 | 1 of 18 (3.12) |
| GFDLNEYGIS | VIYADGRRTFYDDSVK | GQVAGTFDL | -0.53 -0.49 -0.71 -0.75 -0.35 -0.48 | -0.55 | 0 of 18 |
| GFDLNEYGIS | VIYADGRRTFYVDSVK | GVNAGTFDK | -0.32 -0.47 -0.33 -0.29 -0.21 -0.36 | -0.33 | 0 of 18 |
| GFNLDEYGIS | VIYADGRRTFYQDDVK | GNVAGTFDS | -0.34 -0.64 -0.98 -1.14 -0.95 -0.64 | -0.78 | 0 of 18 |
| GFDLNEYGIS | VIYADGRRTFYADSVK | GNVAGTFTS | 0.22 0.37 0.26 0.19 0.11 -0.06 | 0.18 | 0 of 18 |
| GFDLNEYGIS | VIYADGRRTFYADSVK | GHVAGTFVQ | 0.33 0.34 0.22 0.07 0.15 0.46 | 0.26 | 2 of 18 (2.70) |
| GFDLNEYGIS | VIYADGRRTFYSDSVK | GTVAGTFDT | -0.19 -0.37 -0.38 -0.52 -0.21 -0.19 | -0.31 | 0 of 18 |
| GFDLNEYGIS | VIYADGRRTFYADSVK | GQIAGTFSV | -0.78 -0.87 -0.71 -1.15 -1.15 0.11 | -0.76 | 0 of 18 |
| GFDLNEYGIS | VIYADGKRTFYIDSVK | GEIAGTFNV | -0.53 -0.78 -0.72 -1.00 -0.72 -0.27 | -0.67 | 0 of 18 |
| GFDLNEYGIS | VIYADGRRSFYADSVK | GQLAGTFDK | -0.01 -0.63 -0.68 0.04 -0.37 -0.50 | -0.36 | 0 of 18 |
| GFDLEDYGIS | VIYADGRRTFYADKVK | GENAGTFDI | 0.05 -0.26 0.14 -0.42 0.10 0.12 | -0.04 | 0 of 18 |
| GFDLESYGIS | VIYADGRRTFYADDVK | GENAGTFDI | 0.07 1.01 1.65 0.80 0.18 0.45 | 0.69 | 0 of 18 |
| GFDLDEYGIS | VIYADGRRTFYVDSVK | GQAAGTFDQ | -0.64 -1.23 -0.54 -0.69 -0.71 -1.08 | -0.82 | 0 of 18 |
| GFDLNEYGIS | VIYADGRRTFYSDSVK | GTVAGTFDK | -0.14 -0.83 -0.83 -1.06 -0.28 -0.23 | -0.56 | 0 of 18 |
| GFDLNEYGIS | VIYADGRRTFYIDSVK | GTAAGTFDM | 0.19 0.28 0.30 0.18 0.09 0.40 | 0.24 | 0 of 18 |
| GFDLNEYGIS | VIYADGRRTFYSDSVK | GENAGFFDI | ND ND ND ND ND ND | ND | 1 of 18 (2.35) |
| GFNLDEYGIS | VIYADGRRTFYADSVK | GEVAGTFDF | -0.43 -0.39 -0.56 -0.69 -0.58 -0.83 | -0.58 | 0 of 18 |
| GFDINEYGIS | VIYADGRRTQYADSVK | GETAGTFDS | 0.27 0.27 0.26 -0.01 0.39 0.30 | 0.25 | 0 of 18 |
| GFDLNEYGIS | VIYADGIRTFYADSVK | GNQAGTFDV | -0.92 -1.12 -1.06 -1.01 -0.80 -0.65 | -0.93 | 0 of 18 |
| GFSLDEYGIS | VIYADGRRTFYADSVK | GNSAGTFDV | -0.29 -0.21 -0.33 -0.42 -0.59 -0.37 | -0.37 | 0 of 18 |

The first 5 entries again:

| CDR-H1 | CDR-H2 | CDR-H3 | log10 Kd, replicates | mean log10 Kd (nM) | empty controls |
|---|---|---|---|---|---|
| GFDLESYGIS | VIYADGSRTAYADSVK | GNVAGTFDQ | -0.60 -0.40 -0.55 -0.40 -0.63 -0.49 | -0.51 | 0 of 18 |
| GFDLNEYGIS | VIYADGRRTAYTDSVK | GGNAGTFIS | ND ND ND ND ND ND | ND | 0 of 18 |
| GFDLNEYGIS | VIYADGRRTFYADSVK | GQDAGTFDV | 0.52 -0.99 -0.90 -0.84 -0.50 0.09 | -0.44 | 0 of 18 |
| GFNLDEYGIS | VIYADGKRTFYSDSVK | GEVAGTFDI | -0.44 -0.44 -0.59 -0.69 -0.70 -0.31 | -0.53 | 0 of 18 |
| GFDLNEYGIS | VIYADGRRTFYVDSVK | GGNAGTFDS | -0.43 -0.57 -0.49 -0.57 -0.64 -0.56 | -0.54 | 0 of 18 |